# Test results: ChEMBL document CHEMBL1129084, “Structure-activity relationships for macrocyclic peptidomimetic inhibitors of HIV-1 protease” (Bioorg Med Chem Lett, 1996)
# Molecular target: Human immunodeficiency virus type 1 protease (Human immunodeficiency virus 1, UniProt Q72874)
structure (smiles),measurement,value
CC[C@H](C)[C@H](NC(=O)[C@@H]1CCCN1C[C@@H](O)[C@H]1Cc2ccc(cc2)OCCCC(=O)NC(CC(N)=O)C(=O)N1)C(=O)N[C@H](C(N)=O)C(C)C (stereo partly specified),Ki,470 nM
